The subject of this assay is SK-BR-3 HER2+ breast cancer cells. Description: Cell viability assay (CellTiter-Glo), SK-BR-3. The format is cell-based. To be noted: SK-BR-3, 72 h, same concentrations. Here is the method: SK-BR-3 cells were treated with […]-100 nM trastuzumab-MMAE 61″ in the presence or absence of 50 μM B2pin2, cultured for 72 h, and assayed using the CellTiter-Glo® cell viability assay. The IC50 of the ADC was insensitive to the presence or absence of diboron and recapitulated the IC50 of MMAE alone.
As further control, trastuzumab was replaced with a human IgG isotype control, employing ADC 62″. […] This N-oxide-based drug delivery platform provides a convenient mechanism for loading drugs onto antibodies as well as an appealing alternative to existing methods for the fast and complete release of drug molecules from their carriers.
Cell culture: Cells were cultured in RPMI (SK-BR-3) or DMEM (MDA-MB-231) containing 10% FBS (Sigma), 100 units/mL penicillin, and 0.1 mg/mL streptomycin (Sigma) in a humidified chamber at 37° C. under an ambient atmosphere with 5% CO2. […]
Cell viability assay: SK-BR-3 or MDA-MB-231 cell were seeded at a density of 5,000-10,000 cells per well in media [100 μL, RPMI (SK-BR-3) or DMEM (MDA-MB-231) supplemented with 5% heat-inactivated human serum (Sigma), penicillin (100 units/mL), streptomycin (0.1 mg/mL)] in an opaque 96-well plate. […] The plates were incubated at room temperature for 10 min to stabilize the luminescence signal and analyzed by a microplate reader (Clariostar Plus, BMG Labtech) (FIG. 48 and FIG. 49).
In general terms: Cellular ATP, detected with luciferase, serves as a proxy for viable cell number.

As for “trastuzumab: Trastuzumab: Biosynth FT65040, unmodified antibody control”, the “activity on cell viability” value was “little activity”.

(Values after patent publication US20240165259A1, “BIOORTHOGONAL REACTION SUITABLE FOR CLICK/UNCLICK APPLICATIONS” (DANA-FARBER CANCER INSTITUTE, INC., priority 2021, published 2024).)
